Measured values as given in patent US20230218577A1, “USE OF HEAT SHOCK PROTEIN INHIBITORS FOR THE TREATMENT OF NEURODEVELOPMENTAL DISORDERS” (The Children's Medical Center Corporation, priority 2020, published 2023).

test system: mTORC1 activity (pS6) in Tsc2-sh hippocampal neurons; assay: mTORC1 high-content screen (mTORC1^HCA) with the Biomol collection library; settings: not given

Compound | T2 Zscore (Replica 1) | T2 Zscore (Replica 2)
CO[C@@H]1[C@H](C)[C@H]([C@]2(C)CC[C@H]([C@]3(C)CC[C@]4(C[C@H](OC)[C@@H](C)[C@@H]([C@@H](C)[C@H]5O[C@@](O)([C@H](C)C(=O)O)[C@H](C)[C@@H](OC)[C@H]5C)O4)O3)O2)O[C@H]1[C@H]1O[C@](C)(O)[C@H](C)[C@@H](OC)[C@@H]1C [lonomycin] | 0.1261 | 0.4393
O=C1Nc2ccccc2/C1=C1/Nc2ccccc2/C1=N\O [ndirubin-3′-monoxime] | −0.09634 | −0.02118
O[C@H]1[C@H]2[C@H](O)CCCN2C[C@H]1O [swainsonine] | 0.3303 | 0.5023
(−)-Huperzine A | 1.176 | 0.5809
BW-B 70C | 0.8191 | 0.6147
Calphostin C | −2.289 | −1.269
ICRF-193 | 0.02887 | 0.1794
KN-62 | 0.2831 | 0.9362
Mastoparan | 0.1064 | −0.3153
Monensin sodium | 0.557 | 0.8335
Ro 20-1724 | 0.7131 | 0.1282
Ryanodine | 0.3281 | −0.256
Tunicamycin | −0.9103 | −0.2481

same assay, conditions: Z-score of percent GFP+pS6+ neurons in compound-treated Tsc2-knockdown wells, DIV20, Biomol library, replica 1

Compound | T2 Zscore (Replica 1)
Cyclo [Cyclo [Arg-Gly-Asp-D-Phe-Val]] | 0.6748

same assay, conditions: Z-score of percent GFP+pS6+ neurons in compound-treated Tsc2-knockdown wells, DIV20, Biomol library, replica 2

Compound | T2 Zscore (Replica 2)
Cyclo [Cyclo [Arg-Gly-Asp-D-Phe-Val]] | 1.273
